Values of other authors as cited in paper PMC4843776 (Biochemistry, 2016).
Like-named read-outs stand apart in the source and are kept apart here.

Sequences of proteins named here, by UniProt entry; tags and fusion partners are left off. Residues count along the entry.
UniProt P49023, 141-160: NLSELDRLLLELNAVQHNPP
UniProt Q14289, 871-1005: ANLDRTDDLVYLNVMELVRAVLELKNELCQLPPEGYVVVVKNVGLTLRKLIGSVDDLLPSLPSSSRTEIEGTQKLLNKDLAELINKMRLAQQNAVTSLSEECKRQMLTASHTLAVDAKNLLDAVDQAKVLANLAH
UniProt Q14289, 868-1009: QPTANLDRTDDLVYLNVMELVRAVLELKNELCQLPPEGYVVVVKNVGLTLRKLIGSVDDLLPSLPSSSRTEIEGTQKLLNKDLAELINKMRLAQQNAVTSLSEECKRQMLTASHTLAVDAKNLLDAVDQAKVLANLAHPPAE

What was measured:
Settings in all cases: cited from earlier work
[1] = target: paxillin LD2 LD2 motif peptide (Homo sapiens) (UniProt P49023)
[2] = target: Paxillin LD2 peptide LD2 (Homo sapiens) (UniProt P49023)
[3] = target: Paxillin LD2 peptide LD2 (Homo sapiens) (UniProt P49023); remark: listed apart in the source
[4] = target: paxillin LD2 LD2 motif peptide (Homo sapiens) (UniProt P49023); remark: listed apart in the source

Pyk2 FAT (871-1005), H1/H4 site (from UniProt Q14289)
Kd [1]: 35.2 µM

Pyk2 FAT H2/H3 site (from UniProt Q14289)
Kd [2]: 6.9 µM

Pyk2 FAT H1/H4 site (from UniProt Q14289)
Kd [3]: 35.2 µM

Pyk2 FAT (871-1005), H2/H3 site (from UniProt Q14289)
Kd [4]: 6.9 µM
